Results reported in patent US20150030697A1, “Treatments for gastrointestinal disorders” (published 2015).

Key:
[1] = biological target: Guanylate cyclase C (GC-C) (human), P25092; assay: cell-based or functional assay
[2] = biological target: Guanylate cyclase C (GC-C) (human), P25092

Row | Binder | EC50 at pH 5 (nM), cGMP response of T84 cells [1] [nM] | Ki [2] [nM]
1 | CCSLCCNPACTGCY (modifications not checked) [Peptide 1] | 9.8 | 1.1
2 | CCSLCCNPACTGCY (modifications not checked) [Dephospho-Peptide 1] | – | 10.5
3 | CCSLCCNPACTGC (modifications not checked) [Peptide 2] | 10.4 | 0.6
4 | CCSLCCNPACTGC (modifications not checked) [Dephospho-Peptide 2] | – | 4.5
